This is an account of results in ChEMBL document CHEMBL1127048, “A potent new class of kappa-receptor agonist: 4-substituted 1-(arylacetyl)-2-[(dialkylamino)methyl]piperazines” (J Med Chem, 1993).

SMILES strings stand for the structures.

This experiment deals with Mus musculus. Kind of experiment: In vivo antinociceptive activity was determined using mouse acetylcholine induced abdominal constriction test following subcutaneous administration; range (0.23-0.70). Particulars: Abdomen.

What is called ED50 is the dose that gives a 50% effect, or the effect in half of the subjects. Read a high ED50 as weaker potency. As to `CN(C(=O)Cc1ccc(Cl)c(Cl)c1)C1CCCCC1N1CCCC1` (stereo unspecified), the ED50 amounted to 0.41 mg/kg.
